The target in this experiment is A2 adenosine receptor (Rattus norvegicus, UniProt P30543). The experiment can be described thus: biochemical. It counts as binding.

By UniProt entry, the sequences of proteins in these tests, tags left out.
UniProt P30543, whole entry: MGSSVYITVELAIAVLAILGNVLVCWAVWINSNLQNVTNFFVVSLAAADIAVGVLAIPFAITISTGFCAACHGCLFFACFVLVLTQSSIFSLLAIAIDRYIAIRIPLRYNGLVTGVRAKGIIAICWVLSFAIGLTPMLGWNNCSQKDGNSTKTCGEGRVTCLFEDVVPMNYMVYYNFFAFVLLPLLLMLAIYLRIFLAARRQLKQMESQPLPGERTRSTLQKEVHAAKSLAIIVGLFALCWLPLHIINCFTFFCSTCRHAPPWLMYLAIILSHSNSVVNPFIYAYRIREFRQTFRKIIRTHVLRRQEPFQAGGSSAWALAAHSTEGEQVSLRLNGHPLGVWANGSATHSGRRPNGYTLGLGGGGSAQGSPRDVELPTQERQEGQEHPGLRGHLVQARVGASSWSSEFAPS

One compound from patent US5652366A, “DI (1R)-(-)camphosulfonic acid) salt, preparation thereof and use thereof” (Rhone-Poulenc Rorer Pharmaceuticals Inc., priority 1995, dated 1997) can be followed below.

As a reminder, the IC50 is the point on the concentration scale where inhibition reaches its midpoint. A low value points to higher potency.

`C[C@H](Cc1ccccc1)Nc1ncnc2c1ncn2[C@@H]1O[C@H](CO)[C@@H](O)[C@H]1O` [R-PIA, R-phenylisopropyladenosine, reference compound] showed an IC50 of 300 nM.
